Source: PubChem BioAssay (National Center for Advancing Translational Sciences (NCATS))
In the library only some 2.5% were active in any assay of this set; here they are far more common.
miR-21 FLuc = miR-21 reporter, rising signal | HeLa miR-21 FLuc reporter, luciferase, 48 h | Potency, µM (top dose mostly 38.3 µM), inactives show at the top dose reporter change, positive = more light | 340,000 tested, under 10 active | AID 2288; active = well fitted rising curve with a large enough effect; inconclusive = small, poorly fitted or top-dose-only effect; inactive = no such curve, though single readings can be large or run the other way;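 further: % of control where 0% means no effect; miR-21 action dims this reporter so a rising signal means less miR-21 action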
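Luminescence from a firefly luciferase reporter carrying a miR-21 binding site downstream, stably expressed under a CMV promoter in HeLa cells that make miR-21 endogenously, reports miRNA modulation after 48 h compound exposure up to approximately 40uM final.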
TrxR1 substrate = is turned over as a substrate by rat TrxR1; O89049; purified TrxR1 substrate turnover, NADPH consumption readout; Potency, µM (highest dose often 114 µM), for inactives: top-dose activity change, negative = substrate turnover; 0.01% of 390,000 active; AID 588456; also: potency is read from the fitted curve at half-maximal effect; % is scaled to controls: 0 for no effect and ±100 for the full control effect; nearly all actives have a fitted effect of over 50% in size
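Rat TrxR1, dispensed at 90 nM, was prereduced with 400 uM NADPH (final) for 5 min at ~22 deg C, then incubated with compound 15 min before 400 uM selenite. A first-read NADPH fluorescence drop versus no-compound background flagged substrates.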
TrxR1 inh = rat TrxR1 inhibition. recombinant rTrxR1, NADPH fluorescence consumption, selenite substrate. Potency, µM (doses to about 114 µM), inactives show top-dose activity change, negative = inhibition, usual class: inhibitors. 1% of 390,000 active; also: potency is read from the fitted curve at half-maximal effect; % is scaled to controls: 0 for no effect and ±100 for the full control effect; nearly all actives have a fitted effect of over 65% in size
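Rat TrxR1 (90 nM in the dispensed reagent) was pre-reduced with 400 uM NADPH for 5 min at room temperature, then incubated with compound for 15 min. After 400 uM selenite was added, NADPH fluorescence (Ex 340/Em 450 nm) was followed for 8 min.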
Anesthetic bind = candidate novel general anesthetic via apoferritin binding; 0.074% of 350,000 active; apoferritin/1-aminoanthracene competitive binding, fluorescence; P02791; Potency, µM (titrated, usually from 77.5 µM), for the others: top-dose activity change, negative = displacement, actives largely listed as inhibitors; also: potency is read from the fitted curve at half-maximal effect; % is scaled to controls: 0 for no effect and ±100 for the full control effect; nearly all actives have a fitted effect of over 20% in size
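Horse-spleen apoferritin (10 uM) was mixed with 50% saturated 1-aminoanthracene in PBS, exposed to compounds for 10 min at room temperature, and read for fluorescence (ex 380 nm, em 535 nm). Competitive displacement was fitted with a four-parameter Hill equation.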
ClpP mod = qHTS Assay for Activators of ClpP; 1.9% of 340,000 active; Potency, µM (series often up to 57.5 µM), without a hit: at the top dose activity change, negative = active; purified B. subtilis ClpP, FRET peptide cleavage, 20 min; ATP-dependent Clp protease proteolytic subunit (Bacillus subtilis (strain 168)), P80244; AID 651965, 2013; active = well fitted falling curve with a large enough effect; inconclusive = small, poorly fitted or top-dose-only effect; inactive = no such curve, though single readings can be large or run the other way; also: potency is read from the fitted curve at half-maximal effect; the source files actives as falling curves though it sought activators and does not explain the sign; nearly all actives have a fitted effect of over 65% in size
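Purified B. subtilis ClpP, 10 microg/mL final in Tris/HCl pH8 with KCl, BSA, glycerol and Tween-20, cleaved an Abz/nitrotyrosine-quenched decapeptide. Fluorescence (ex 320, em 430) was read at 0 and 20 min at room temperature. Delta was normalized to 5.8 microM ADEP and DMSO/no-enzyme controls.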
An asterisk follows results filed as active; ? = inconclusive; nt = not tested or not shown; ! = not active in a repeat; [ ] = another dose, or the depositor's remark. Unless noted, calls follow the shape of the dose curve; as a rule, active = well fitted curve in the direction sought with a large enough effect; inconclusive = small, poorly fitted or top-dose-only effect, or another doubt; inactive = no such curve, though single readings can be large; an effect the other way counts as inactive or inconclusive.

Sequences of proteins named here, by UniProt entry; tags and fusion partners are left off.
ATP-dependent Clp protease proteolytic subunit (Bacillus subtilis (strain 168)), P80244, UniProt P80244, whole entry, looked up: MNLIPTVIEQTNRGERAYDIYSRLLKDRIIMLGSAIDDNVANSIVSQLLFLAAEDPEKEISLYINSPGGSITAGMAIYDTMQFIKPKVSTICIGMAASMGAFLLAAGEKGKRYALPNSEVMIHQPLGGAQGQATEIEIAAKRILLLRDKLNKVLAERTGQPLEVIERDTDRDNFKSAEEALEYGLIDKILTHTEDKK

Letters – A = miR-21 FLuc; B = TrxR1 substrate; C = TrxR1 inh; D = Anesthetic bind; E = ClpP mod
CCCC12CN3CC(C)(CN(C1)C3c1ccc(OCc3ccccc3)cc1)C2=O (configuration not stated)
  A = 7%	B = -8%	C = 16%	D = 7%	E = 0%
Cc1cc2n(n1)SC(Nc1cc(Cl)ccc1Cl)N2 (configuration not stated)
  A = -25%	B = 1%	C = 7.1µM*	D = 1%	E = 1%
Cn1c(=O)[nH]c(=O)c2c1nc(N/N=C/C(Br)=C/c1ccccc1)n2CCO
  A = -2%	B = -5%	C = 3.5µM*	D = 4%	E = nt
Cc1cccc(CSC(=N)N)c1
  A = -3%	B = 8%[57.1 µM]	C = 8%[57.1 µM]	D = -6%	E = 13µM*
N=C(N)SCCc1cccc(CCSC(=N)N)c1
  A = nt	B = 8%	C = 4%	D = nt	E = 2%
CCCCn1c(=O)[nH]c(=O)c2c1nc(Cn1ncc(Cl)c(Cl)c1=O)n2CCC
  A = ?	B = 11%	C = 50µM*	D = -20%	E = nt
COc1cc(NC(=O)CCn2nc(C)c(S(=O)(=O)N3CCCCC3)c2C)cc(OC)c1OC
  A = 1%	B = 5%[57.1 µM]	C = 10%[57.1 µM]	D = -10%	E = 1%
COc1cc(C2Nc3cccc4cccc(c34)N2)ccc1O
  A = -3%	B = 12%[57.1 µM]	C = -65%	D = -20%	E = 0%
COc1cc(C2Nc3cccc4cccc(c34)N2)cc(OC)c1OC(C)=O
  A = 0%	B = -11%	C = 35µM*	D = 8%	E = -4%
COc1ccc(NC(=S)Nc2nc(CC(=O)Nc3ccccc3OC)cs2)cc1
  A = 17%	B = 0%	C = 1µM*	D = 2%	E = -3%
Cc1cc(C)cc(C(=O)N(Cc2nc(-c3ccc(Cl)cc3)no2)C(C)C)c1
  A = 5%	B = -4%	C = 26%	D = -3%	E = -1%
Cc1cc(-c2ccc(S(=O)(=O)Nc3ccc(Br)c(C)c3)s2)on1
  A = 16%	B = 5%[57.1 µM]	C = 12%[57.1 µM]	D = -2%	E = 1%
CCc1cccc(C)c1NC(=O)C1CN(S(=O)(=O)c2ccccc2)CCN1S(=O)(=O)c1ccccc1 (configuration not stated)
  A = 0%	B = -4%	C = -5%	D = -1%	E = 25µM*
CCOC(=O)C1CN(S(=O)(=O)c2ccccc2)CCN1S(=O)(=O)c1ccccc1 (configuration not stated)
  A = -4%	B = 9%	C = 2%	D = -4%	E = -2%
Cc1ccc(S(=O)(=O)N(C)CCN(C)c2nc(-c3cccs3)nc3ccccc23)cc1
  A = nt	B = 7%	C = 29%	D = nt	E = 32µM*

In the list so far, 3 have a carbonyl joined to an NH by a bond outside any ring.
Letters – A = miR-21 FLuc; B = TrxR1 substrate; C = TrxR1 inh; D = Anesthetic bind; E = ClpP mod
COc1cc(NC(=O)CCn2nc(C)c(S(=O)(=O)N3CCCCC3)c2C)cc(OC)c1OC
  A = 1%	B = 5%[57.1 µM]	C = 10%[57.1 µM]	D = -10%	E = 1%
COc1ccc(NC(=S)Nc2nc(CC(=O)Nc3ccccc3OC)cs2)cc1
  A = 17%	B = 0%	C = 1µM*	D = 2%	E = -3%
CCc1cccc(C)c1NC(=O)C1CN(S(=O)(=O)c2ccccc2)CCN1S(=O)(=O)c1ccccc1 (configuration not stated)
  A = 0%	B = -4%	C = -5%	D = -1%	E = 25µM*

Next part
Letters – A = miR-21 FLuc; B = TrxR1 substrate; C = TrxR1 inh; D = Anesthetic bind; E = ClpP mod
CCN1CCN(C(=O)c2cnn(-c3cccc(C)c3)c2C2CCN(C(=O)OC(C)(C)C)CC2)CC1
  A = -1%	B = 2%	C = 5%	D = -5%	E = 1%
COc1cc2c(c(O)c1OC)C(=O)C(OC)CCC2 (configuration not stated)
  A = -5%	B = 15%[57.1 µM]	C = 20%[57.1 µM]	D = -8%	E = 28µM*
Cc1sc2ncnc(Sc3nnnn3-c3ccccc3)c2c1C
  A = ?	B = 27%	C = ?	D = ?	E = 32µM*!
COc1ccc(Cl)cc1NC(=O)Cn1c2ncccc2c(=O)n1-c1ccc(C)c(C)c1
  A = -2%	B = 4%[57.1 µM]	C = 8%[57.1 µM]	D = 1%	E = -9%
CCOC(=O)NN1C(=O)c2ccccc2NC1C (configuration not stated)
  A = -2%	B = 121%	C = 2%	D = 74%	E = 4%
CCOC(=O)NN1C(=O)c2ccccc2NC1c1ccc(N(C)C)cc1 (configuration not stated)
  A = -27%	B = 0%[57.1 µM]	C = -8%[57.1 µM]	D = -2%	E = 1%
CCOC(=O)NN1C(=O)c2ccccc2NC1c1ccc(OC)cc1 (configuration not stated)
  A = -11%	B = 92%	C = -34%	D = 84%	E = 32µM*
CCOC(=O)NN1C(=O)c2ccccc2NC1c1ccccc1 (configuration not stated)
  A = -9%	B = 117%	C = ?	D = 94%	E = 32µM*
Cn1nnc2c(NCc3ccco3)ncnc21
  A = nt	B = -1%	C = ?	D = nt	E = 1%
CCC1CO/C(=C(\C(Cl)=C(Cl)Cl)[N+](=O)[O-])N1 (configuration not stated)
  A = -10%	B = 4%	C = 16µM*	D = ?	E = nt
CCOc1ccccc1NC(=O)N(Cc1ccc(C)o1)C1CCN(C(C)=O)CC1
  A = 0%	B = 6%	C = 12%	D = -9%	E = 0%
Cc1ccc(Cl)cc1NC(=O)c1sc2nc(C)c(C)c(C)c2c1N
  A = -21%	B = 2%	C = 0%	D = 5%	E = ?
CSc1ccc(CCNC(=O)c2ccc3c(c2)nc2n3CCCCC2)cc1
  A = -15%	B = -1%[57.1 µM]	C = -1%[57.1 µM]	D = -24%	E = 1%
COc1ccccc1-c1noc(-c2ccc(NC(C)C)c([N+](=O)[O-])c2)n1
  A = -7%	B = -5%	C = -6%	D = 0%	E = 1%
COC(C/C=C\C(=O)[C@H](C)OCc1ccccc1)OC
  A = nt	B = -3%	C = 45µM*	D = nt	E = 0%

Ordered by value in Anesthetic bind (falling): 3 of the compounds above.
| Molecule | miR-21 FLuc | TrxR1 substrate | TrxR1 inh | Anesthetic bind |
| --- | --- | --- | --- | --- |
| CCOC(=O)NN1C(=O)c2ccccc2NC1c1ccccc1 (configuration not stated) | -9% | 117% | ? | 94% |
| COc1ccc(Cl)cc1NC(=O)Cn1c2ncccc2c(=O)n1-c1ccc(C)c(C)c1 | -2% | 4%[57.1 µM] | 8%[57.1 µM] | 1% |
| CSc1ccc(CCNC(=O)c2ccc3c(c2)nc2n3CCCCC2)cc1 | -15% | -1%[57.1 µM] | -1%[57.1 µM] | -24% |

Continued.
Letters – A = miR-21 FLuc; B = TrxR1 substrate; C = TrxR1 inh; D = Anesthetic bind; E = ClpP mod
COC(C/C=C\[C@@H](O)[C@@H](C)OCc1ccccc1)OC
  A = nt	B = 6%[57.1 µM]	C = 14%	D = nt	E = 0%
CCc1ccc2ncc3c(-c4ccc(F)cc4)nn(CC(=O)NC4CCCCC4)c3c2c1
  A = -2%	B = 0%[57.1 µM]	C = 5%[57.1 µM]	D = -2%	E = 2%
COc1ccccc1CC(=O)NC1CC1
  A = -3%	B = -15%	C = 2%[57.1 µM]	D = -3%	E = 0%
COc1ccccc1CC(=O)NC1CC(C)(C)NC(C)(C)C1
  A = 0%	B = 12%	C = 13%	D = 0%	E = 28µM*
O=C(CSc1nc2c(c(=O)[nH]1)CN(Cc1ccc3c(c1)OCO3)CC2)Nc1cccc(Cl)c1
  A = -3%	B = 8%	C = 22%	D = -6%	E = 1%
CCC(=O)Nc1cccc(C(=O)/C=C/c2cccs2)c1
  A = 23%	B = -3%	C = -6%	D = ?	E = -2%
CCC(=O)Nc1cccc(C(=O)/C=C/c2ccccc2)c1
  A = ?	B = -10%	C = ?	D = ?	E = 16µM*
N#Cc1ccc(NC(=O)COC(=O)C2CCC2)cc1
  A = nt	B = nt	C = nt	D = nt	E = -1%
N#Cc1ccc(NC(=O)COC(=O)CNC(=O)C2CCCCC2)cc1
  A = -3%	B = 2%	C = 4%	D = 8.9µM*	E = 0%
CSc1ccc(CNC(=O)Cc2csc3ccccc23)cc1
  A = -34%	B = -1%	C = -10%	D = -4%	E = -1%
CNc1ccc(/C=C/c2ccccc2)cc1
  A = nt	B = 9%	C = -9%	D = nt	E = 4%
CCOc1ccc2c(c1)N(C(=O)CN1C(=O)CCC1=O)C(C)(C)C=C2C
  A = -2%	B = 7%[57.1 µM]	C = 5%[57.1 µM]	D = -11%	E = 32µM*
CC1=CC(C)(C)N(C(=O)CN2C(=O)CCC2=O)c2ccc(C)cc21
  A = -3%	B = 7%[57.1 µM]	C = 19%[57.1 µM]	D = -7%	E = nt
Cc1ccc(S(=O)(=O)N(CC(=O)N2CCc3ccccc3C2)c2ccc(C)c(C)c2)cc1
  A = ?	B = -3%	C = 14%	D = 34%	E = 4%
Cn1ccsc1=NC(=O)c1ccc(S(C)(=O)=O)c([N+](=O)[O-])c1
  A = -13%	B = -13%	C = 56µM*	D = 1%	E = -1%
O=C1C=CC(=O)N1
  A = nt	B = 6%	C = 2µM*	D = nt	E = -2%
CC(C)(C)n1ncc2c(=O)n(Cc3ccc(Cl)cc3C(F)(F)F)cnc21
  A = nt	B = -3%	C = 1%	D = nt	E = nt
Cc1ccc(C(=O)N2CCc3cc(CNC(=O)c4ccccc4F)ccc32)cc1
  A = 18%	B = -7%[57.1 µM]	C = 3%[57.1 µM]	D = 4%	E = -2%
O=C(CCN1CCCCC1)c1cccc(Cl)c1
  A = nt	B = 12%[57.1 µM]	C = 0.35µM*	D = nt	E = 0%
